Measured values from US8309552B2, “Immunomodulating heterocyclic compounds” (Medigene AG, priority 2003, dated 2012).

Protein sequences, listed by entry. Tags and fused reporters are not part of them. Residues count along the entry.
UniProt P33681, 35-242 limits assumed: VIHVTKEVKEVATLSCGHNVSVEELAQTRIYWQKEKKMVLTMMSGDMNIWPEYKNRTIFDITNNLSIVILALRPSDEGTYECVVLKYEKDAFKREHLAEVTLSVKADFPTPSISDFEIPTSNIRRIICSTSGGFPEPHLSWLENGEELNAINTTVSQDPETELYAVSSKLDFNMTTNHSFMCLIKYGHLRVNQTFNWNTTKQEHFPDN

Target: CD80-CD28 interaction (Homo sapiens, UniProt P33681)
Assay: Homogenous Time Resolved Fluorescence (HTRF) assay, cell free
Conditions: read-out: Activity (EC50 in the HTRF assay); cell free HTRF assay; concentration series 100 μM-1.7 nM; 4 hours at room temperature
Experimental: Homogenous Time Resolved Fluorescence Assay
The examples described above were tested in a cell free Homogenous Time Resolved Fluorescence (HTRF) assay to determine their activity as inhibitors of the CD80-CD28 interaction.
In the assay, europium and allophycocyanin (APC) are associated with CD28 and CD80 indirectly (through antibody linkers) to form a complex, which brings the europium and APC into close proximity to generate a signal. The complex comprises the following six proteins: fluorescent label 1, linker antibody 1, CD28 fusion protein, CD80 fusion protein, linker antibody 2, and fluorescent label 2. The table below describes these reagents in greater detail.
On formation of the complex, europium and APC are brought into proximity and a signal is generated.
Non-specific interaction was measured by substituting a mouse Fab fragment (C215) for the CD80 mouse Fab fragment fusion protein (1.9 μg/ml). The assay was carried out in black 384 well plates in a final volume of 30 μl. Assay buffer: 50 mM Tris-HCl, 150 mM NaCl pH7.8, containing 0.1% BSA (w/v) added just prior to use.
Compounds were added to the above reagents in a concentration series ranging between 100 μM-1.7 nM. The reaction was incubated for 4 hours at room temperature. Dual measurements were made using a Wallac Victor 1420 Multilabel Counter. First measurement: excitation 340 nm, emission 665 nm, delay 50 μs, window time 200 μs. second measurement: excitation 340 nm, emission 615 nm, delay 50 μs, window time 200 μs. Counts were automatically corrected for fluorescence crossover, quenching and background. The EC50 activities of compounds tested are recorded as: EC50:*=>10 μM,**=1-10 μM,***=<1 μM.

Compound | EC50 [µM]
CN1C2CCC1CC(NC(=O)c1ccc(-n3[nH]c4c(nnc5ccccc54)c3=O)cc1)C2 (stereo not drawn) | < 1
CCCNCCNC(=O)c1ccc(-n2[nH]c3c(nnc4ccc(F)cc43)c2=O)cc1 | < 1
CNCCCNC(=O)Nc1ccc(-n2[nH]c3c(nnc4ccccc43)c2=O)cc1 | < 1
O=C(Nc1ccncc1)c1ccc(-n2[nH]c3c(nnc4ccccc43)c2=O)cc1 | > 10
Cc1cc(C)cc(CN2CCC(NC(=O)c3ccc(-n4[nH]c5c(nnc6c(F)cccc65)c4=O)cc3)CC2)c1 | 1 to 10
O=C(NCCCNC1CCCCC1)c1ccc(-n2[nH]c3c(nnc4ccc(F)cc43)c2=O)cc1 | < 1

Now from value to compound:

EC50 [µM] | Compound
< 1 | CCN(CC)CCCCNC(=O)c1ccc(-n2[nH]c3c(nnc4c(F)cccc43)c2=O)cc1
< 1 | O=C(NCC(F)(F)C(F)(F)F)c1ccc(-n2[nH]c3c(nnc4c(F)cccc43)c2=O)cc1
1 to 10 | Cc1cccc(CCNC(=O)c2ccc(-n3[nH]c4c(nnc5c(F)cccc54)c3=O)cc2)c1
< 1 | O=C(NCCCCNC1CCCCC1)c1ccc(-n2[nH]c3c(nnc4c(F)cccc43)c2=O)cc1
< 1 | O=C(NCCCCN1CCCC1)c1ccc(-n2[nH]c3c(nnc4c(F)cccc43)c2=O)cc1 [Example 6, 4-(6-fluoro-3-oxo-1,3-dihydro-2H-pyrazolo[4,3-c]cinnolin-2-yl)-N-(pyrrolidin-1-yl-butyl)benzamide]
< 1 | O=C(NCCC(F)(F)F)c1ccc(-n2[nH]c3c(nnc4c(F)cccc43)c2=O)cc1

Same assay, conditions: read-out: Activity (EC50 in the HTRF assay); cell-free HTRF, compound concentration series 100 μM-1.7 nM, 4 hours at room temperature

Compound | EC50 [µM]
CCOC(=O)CCCNC(=O)c1ccc(-n2[nH]c3c(nnc4ccccc43)c2=O)cc1 | > 10

Same assay, conditions: read-out: Activity (EC50 in the HTRF assay); cell-free HTRF, concentration series 100 μM-1.7 nM, 4 hours at room temperature

Compound | EC50 [µM]
N#CC(NC(=O)c1ccc(-n2[nH]c3c(nnc4c(F)cccc43)c2=O)cc1)c1ccccc1 (stereo not drawn) | 1 to 10
O=C(NC(c1ccccc1)C(O)c1ccccc1)c1ccc(-n2[nH]c3c(nnc4c(F)cccc43)c2=O)cc1 (stereo not drawn) | > 10
O=C(NCCCNC1CCCCC1)c1ccc(-n2[nH]c3c(nnc4ccc(Cl)cc43)c2=O)cc1 | < 1
O=C(NCC(F)F)c1ccc(-n2[nH]c3c(nnc4ccc(F)cc43)c2=O)cc1 | < 1
O=C(c1ccc(-n2[nH]c3c(nnc4c(F)cccc43)c2=O)cc1)N1CCCCCCC1 | 1 to 10

Further lines, results first:

EC50 [µM] | Compound
< 1 | O=C(NCCC1CC(F)(F)CCN1)c1ccc(-n2[nH]c3c(nnc4c(F)cccc43)c2=O)cc1 (stereo not drawn)
1 to 10 | O=C(NCCC(F)=C(F)F)c1ccc(-n2[nH]c3c(nnc4c(F)cccc43)c2=O)cc1
< 1 | CC(C)(CN)CNC(=O)c1ccc(-n2[nH]c3c(nnc4c(F)cccc43)c2=O)cc1
